From US12655107B2 (The United States of America, as represented by the …, priority 2018, dated 2026)

How the values were obtained:
A549 = experiment: MTT cytotoxicity assay, A549; assay type: cell-based; settings: Homo sapiens, A549, 72 h
[1] = Pharmacokinetic study in rat; settings: SD rats
Huh7 = experiment: MTT cytotoxicity assay, Huh7; assay type: cell-based; settings: Homo sapiens, Huh-7, 72 h, read-out: GI50 (μM) Huh7
DU145 = experiment: MTT cytotoxicity assay, DU145; assay type: cell-based; settings: Homo sapiens, DU-145, 72 h
CCRF-CEM = experiment: MTT cytotoxicity assay, CCRF-CEM; assay type: cell-based, human; settings: 72 h; for GI50 (μM) CCRF-CEM: MTT, Table 1b
HCT116 = experiment: MTT cytotoxicity assay, HCT116; settings: Homo sapiens, HCT-116, 72 h
MCF-7 = experiment: MTT cytotoxicity assay, MCF-7; assay type: cell-based; settings: Homo sapiens, MCF7, 72 h, read-out: GI50 ± SC (μM) MCF-7

Structure (SMILES) | GI50 (A549; read-out: GI50 (μM) A549) [µM] | GI50 (Huh7) [µM] | further results
COc1cc2c(=O)n(CCCO)c3c4cc5c(cc4ccc3c2cc1OC)OCO5 [Compound 17b, 12-(3-Hydroxypropyl)-2,3-dimethoxy-[1,3]dioxolo[4′,5′:4,5]benzo[1,2-c]phenanthridin-13(12H)-one] | > 100 | – | –
COc1cc2c(=O)n(CCN(C)C)c3c4cc5c(cc4ccc3c2cc1OC)OCO5 [Compound 19a, 12-(2-(Dimethylamino)ethyl)-2,3-dimethoxy-[1,3]dioxolo[4′,5′:4,5]benzo[1,2-c]phenanthridin-13(12H)-one] | – | – | MRTINF ([1]; i.g. 5 mg/kg): 4.73 ± 3.3 h; MRTINF ([1]; i.v. 1 mg/kg): 1.01 ± 0.023 h
COc1cc2c(=O)n(CCN3CCOCC3)c3c4cc5c(cc4ccc3c2cc1OC)OCO5 [Compound 23a, 2,3-Dimethoxy-12-(2-morpholinoethyl)-[1,3]dioxolo[4′,5′:4,5]benzo[1,2-c]phenanthridin-13(12H)-one] | > 100 | > 100 | –
COc1cc2c(=O)n(CCCN3CCOCC3)c3c4cc5c(cc4ccc3c2cc1OC)OCO5 [Compound 23b, 2,3-Dimethoxy-12-(3-morpholinopropyl)-[1,3]dioxolo[4′,5′:4,5]benzo[1,2-c]phenanthridin-13(12H)-one] | > 100 | > 100 | GI50 (DU145; read-out: GI50 (μM) DU145): > 100 µM
COc1cc2c(=O)n(CCCN3CCN(C)CC3)c3c4cc5c(cc4ccc3c2cc1OC)OCO5 [Compound 24b, 2,3-dimethoxy-12-(3-(4-methylpiperazin-1-yl)propyl)-[1,3]dioxolo[4′,5′:4,5]benzo[1,2-c]phenanthridin-13(12H)-one] | > 100 | > 100 | –
COc1cc2c(cc1OC)-c1ccc3cc4c(cc3c1N(CCCN1CCCC1)C2)OCO4 [Compound 28b, 2,3-Dimethoxy-12-(3-(pyrrolidin-1-yl)propyl)-12,13-dihydro-[1,3]dioxolo[4′,5′:4,5]benzo[1,2-c]phenanthridine] | – | – | GI50 (μM) CCRF-CEM (CCRF-CEM): submicromolar concentration
COc1cc2c(cc1OC)-c1ccc3cc4c(cc3c1N(CCCN1CCCCC1)C2)OCO4 [Compound 29b, 2,3-Dimethoxy-12-(3-(piperidin-1-yl)propyl)-12,13-dihydro-[1,3]dioxolo[4′,5′:4,5]benzo[1,2-c]phenanthridine] | – | – | GI50 (μM) CCRF-CEM (CCRF-CEM): submicromolar concentration
COc1cc2c(cc1OC)-c1ccc3cc4c(cc3c1N(CCN1CCOCC1)C2)OCO4 [Compound 30a, 2,3-Dimethoxy-12-(2-morpholinoethyl)-12,13-dihydro-[1,3]dioxolo[4′,5′:4,5]benzo[1,2-c]phenanthridine] | – | > 100 | GI50 (μM) CCRF-CEM (CCRF-CEM): submicromolar concentration
COc1cc2c(cc1OC)-c1ccc3cc4c(cc3c1N(CCCN1CCOCC1)C2)OCO4 [Compound 30b, 2,3-Dimethoxy-12-(3-morpholinopropyl)-12,13-dihydro-[1,3]dioxolo[4′,5′:4,5]benzo[1,2-c]phenanthridine] | > 100 | > 100 | GI50 (μM) CCRF-CEM (CCRF-CEM): submicromolar concentration
CCN(CC)CCOc1nc2c3cc4c(cc3ccc2c2cc(OC)c(OC)cc12)OCO4 [Compound 40a, 2,3-Dimethoxy-13-(2-(diethylamino)ethoxy)-[1,3]dioxolo[4′,5′:4,5]benzo[1,2-c]phenanthridine] | > 100 | > 100 | –
CCN(CC)CCCOc1nc2c3cc4c(cc3ccc2c2cc(OC)c(OC)cc12)OCO4 [Compound 40b] | – | > 100 | –
COc1cc2c(OCCCN3CCCCC3)nc3c4cc5c(cc4ccc3c2cc1OC)OCO5 [Compound 42b, 2,3-Dimethoxy-13-(3-(piperidin-1-yl)propoxy)-[1,3]dioxolo[4′5′:4,5]benzo[1,2-c]phenanthridine] | > 100 | > 100 | GI50 (HCT116; read-out: GI50 (μM) HCT116): > 100 µM
COc1cc2c(OCCN3CCOCC3)nc3c4cc5c(cc4ccc3c2cc1OC)OCO5 [Compound 43a, 2,3-Dimethoxy-13-(2-morpholinoethoxy)-[1,3]dioxolo[4′,5′:4,5]benzo[1,2-c]phenanthridine] | > 100 | > 100 | –
COc1cc2c(OCCCN3CCOCC3)nc3c4cc5c(cc4ccc3c2cc1OC)OCO5 [Compound 43b, 2,3-Dimethoxy-13-(3-morpholinopropoxy)-[1,3]dioxolo[4′,5′:4,5]benzo[1,2-c]phenanthridine] | > 100 | > 100 | GI50 (HCT116; read-out: GI50 (μM) HCT116): > 100 µM; GI50 (CCRF-CEM; Homo sapiens, CCRF-CEM, read-out: GI50 (μM) CCRF-CEM): > 100 µM; GI50 (DU145; read-out: GI50 (μM) DU145): > 100 µM
COc1cc2c(OCCCN3CCN(C)CC3)nc3c4cc5c(cc4ccc3c2cc1OC)OCO5 [Compound 44b, 2,3-Dimethoxy-13-(3-(4-methylpiperazin-1-yl)propoxy)-[1,3]dioxolo[4′,5′:4,5]benzo[1,2-c]phenanthridine] | – | > 100 | –
COc1cc2c(OCCn3ccnc3)nc3c4cc5c(cc4ccc3c2cc1OC)OCO5 [Compound 45a, 13-(2-(1H-imidazol-1-yl)ethoxy)-2,3-dimethoxy-[1,3]dioxolo[4′,5′:4,5]benzo[1,2-c]phenanthridine] | – | – | GI50 (DU145; read-out: GI50 (μM) DU145): > 100 µM
COc1cc2c(OCCCn3ccnc3)nc3c4cc5c(cc4ccc3c2cc1OC)OCO5 [Compound 45b, 13-(3-(1H-imidazol-1-yl)propoxy)-2,3-dimethoxy-[1,3]dioxolo[4′,5′:4,5]benzo[1,2-c]phenanthridine] | – | – | GI50 (HCT116; read-out: GI50 (μM) HCT116): > 100 µM
COc1cc2c(=O)n(CCN(C)P3(=O)OCCO3)c3c4cc5c(cc4ccc3c2cc1OC)OCO5 [Compound 57, 2,3-dimethoxy-12-(2-(methyl(2-oxido-1,3,2-dioxaphospholan-2-yl)amino)ethyl)-[1,3]dioxolo[4′,5′:4,5]benzo[1,2-c]phenanthridin-13(12H)-one] | – | – | GI50 (A549; read-out: GI50 ± SC (μM) A-49): 1.9 ± 0.034 µM; GI50 (HCT116; read-out: GI50 ± SC (μM) HCT116): 5.9 ± 1.2 µM; GI50 (DU145; read-out: GI50 ± SC (μM) DU145): 3.6 ± 0.25 µM; GI50 (MCF-7): 1.8 ± 0.47 µM

Like-named read-outs stand apart in the source and are kept apart here.
